Assay results taken from ChEMBL document CHEMBL3616415.

Experiment: Lipophilicity, log P of the compound
Details: octanol/water

`CCC(=O)N(CC1CCN(Cc2ccc3c(c2)CCC[C@H]3N)CC1)c1ccccc1` showed a logP of 4.17.

This is a selection: effects in other tests are not listed, and their absence says nothing.
